Laboratory results from US12507703B2, “Methods, devices and compositions for preserving human milk” (The Trustees of Princeton University, priority 2023, dated 2025).

System: lipase
Assay: Lipase/lipolysis assay (EnzChek Lipase Substrate, quenched BODIPY-fatty acid conjugate) on stored human milk; for Lipase (RFU): test concentration or dose not given here
Details: for Lipase (RFU): stored 1 week at −20° C.
[1] = Biolog PM2a compound added to fresh human milk, RFU <400 = hit
[2] = compound added to fresh human milk, thawed at room temperature, RFU <400 considered a hit
[3] = Biolog PM1 compound added to fresh human milk, RFU <400 = hit
[4] = Food Additive Library compound added to fresh human milk, thawed at room temperature, RFU of <400 considered a hit
[5] = Biolog PM5 compound added to fresh human milk, RFU <400 = hit
[6] = Food-Sourced Compound Library compound added to fresh human milk, thawed at room temperature, RFU <400 considered a hit

Molecule | Lipase (RFU) [2] | Lipase (RFU) [4] | also measured
Pectin |  |  | Lipase (RFU) [1]: 344.0037 RFU; Hit in lipase inhibition screen (in words) (approximately 2700 compound screen, human milk stored 1 week at −20° C., hit = RFU <400): significantly inhibited lipase activity; Effect on lipase / lipolysis (in words) (human milk stored 1 week at −20° C.): decreased lipase levels; Effect on lipase / lipolysis (in words) (human milk stored 1 week at −20° C., listed as pectin): did inhibited lipase
O=c1c(O[C@@H]2OC[C@H](O)[C@H](O)[C@H]2O)c(-c2ccc(O)c(O)c2)oc2cc(O)cc(O)c12 [Guaijaverin] | 1052.008 RFU |  | 
CCC(=O)O [Propionic Acid] |  |  | Lipase (RFU) [3]: 949.5989 RFU
CC(O)(P(=O)(O)O)P(=O)(O)O [Etidronic acid] |  | 958.9943 RFU | 
Nc1nc2c(ncn2[C@@H]2O[C@H](CO)[C@@H](O)[C@H]2O)c(=O)[nH]1 [Guanosine] |  |  | Lipase (RFU) [5]: 912.4694 RFU
C[N+](C)(C)C[C@H](O)CC(=O)[O-] [L-Carnitine] |  | 1039.732 RFU | 
O=[N+]([O-])c1ccc(O)c(O)c1 [Compound 4-Nitrocatechol, 4-Nitrocatechol] | 1062.242 RFU |  | 
CCC(=O)C(C)=O [2,3-Pentanedione] | 909.3841 RFU | 655.8408 RFU | 
COC(=O)Cc1ccc(C(C)(C)C)cc1 [Methyl p-tert-butylphenylacetate] |  | 1050.221 RFU | 
O=C(O)/C=C(/CC(=O)O)C(=O)O [(Z)-Aconitic acid] |  |  | Lipase (RFU) [6]: 921.627 RFU
CCCCCCCCCCCCCCCC(=O)O[C@@H]1CC(C)=C(/C=C/C(C)=C/C=C/C(C)=C/C=C/C=C(C)/C=C/C=C(C)/C=C/C2=C(C)C[C@@H](OC(=O)CCCCCCCCCCCCCCC)CC2(C)C)C(C)(C)C1 [Zeaxanthin dipalmitate] |  |  | Lipase (RFU) [6]: 873.6162 RFU
O=C(O)CC(O)(CC(=O)O)C(=O)O [Citric Acid] | 762.2073 RFU | 1240.795 RFU | Lipase (RFU) [3]: 603.536 RFU
O=C(O)[C@H]1CCCN1 [(R)-pyrrolidine-2-carboxylic acid] | 741.8848 RFU |  | 
NCC(O)c1ccccc1 (centres unmarked) [Compound 2-Amino-1-phenylethanol, 2-Amino-1-phenylethanol] | 1076.654 RFU |  | 
CCCCCCCCCC(=O)O [Capric Acid] |  |  | Lipase (RFU) [1]: 943.0875 RFU
N[C@@H](CCC(=O)O)C(=O)O [L-Glutamic Acid] | 1096.087 RFU |  | Lipase (RFU) (Food Additive Library compound added to fresh human milk, thawed at room temperature, RFU of <400 considered a hit, listed as L-Glutamic acid): 859.3798 RFU

Molecule | Lipase (RFU) [2] | Lipase (RFU) [4] | also measured
OC[C@H]1NCC[C@@H](O)[C@@H]1O [Fagomine] | 1239.347 RFU |  | 
CC(=O)CC(=O)CCC(=O)O [4,6-Dioxoheptanoic acid] | 821.8451 RFU |  | 
CC(O)CC(=O)O.[Na] (centres unmarked) [3-Hydroxybutyric acid (sodium)] |  |  | Lipase (RFU) [6]: 894.0672 RFU
CC(=O)c1ccco1 [Compound 2-Acetylfuran, 2-Acetylfuran] |  | 775.2638 RFU | 
O=C(O)c1c(O)cccc1O [2,6-Dihydroxybenzoic acid] | 658.0243 RFU |  | 
CCCCCc1ccco1 [Compound 2-Pentylfuran, 2-Pentylfuran] |  | 858.2494 RFU | 
NC1(C(=O)O)CC1 [1-Aminocyclopropane-1-carboxylic acid] |  |  | Lipase (RFU) [6]: 796.6717 RFU
N[C@@H](CSC[C@H](N)C(=O)O)C(=O)O [Lanthionine] |  |  | Lipase (RFU) (Biolog PM4 compound added to fresh human milk, RFU <400 = hit): 968.1267 RFU
O=C[C@H](O)[C@@H](O)[C@@H](O)[C@H](O)CO [D-Galactose] |  |  | Lipase (RFU) [3]: 1015.644 RFU
O=NN(CCCl)C(=O)NCCCl [Carmustine] | 1282.739 RFU |  | 
O=C(O)CCCC[C@@H]1SC[C@@H]2NC(=O)N[C@@H]21 [D-Biotin] |  |  | Lipase (RFU) [5]: 697.9239 RFU
O=c1c(-c2ccccc2)coc2ccccc12 [Isoflavone] |  |  | Lipase (RFU) [6]: 913.1429 RFU
CCCCCCCC=O [Octanal] |  | 920.8484 RFU | 
O=C1O[C@H]([C@@H](O)CO)C(O)=C1O [L-Ascorbic acid (sodium salt)] | 1100.764 RFU | 1247.113 RFU | 
N=C(N)NC(CC(=O)O)C(=O)O (centres unmarked) [Guanidinosuccinic acid] | 698.8303 RFU |  | 
O=C(O)C(=O)CO [Hydroxypyruvic acid] |  | 1051.111 RFU | Lipase (RFU) [6]: 1244.252 RFU

Where a name gives a salt, the structure may show the parent alone.
